In patent publication US8933133B2, “Animal feeds containing polyols” (ADM Alliance Nutrition, Inc., priority 2006, dated 2015):

System: rumen fluid
Protocol: Fermentations were performed on two separate days where gas production was monitored every 30 minutes. In addition, pH, ammonia (NH3), and volatile fatty acid (“VFA”) production were measured after 24 hours. Duplicate samples of each compound were evaluated using in vitro rumen fermentations.
Duplicate samples of these compounds were fermented in vitro using rumen fluid as inoculum. Samples were weighed into 150 mL serum bottles (0.3 grams per bottle) using a CO2 atmosphere to provide an anaerobic environment. A standard buffered media was prepared (no additional feed matter was included in the fermentation), degassed, and added to the serum bottles (see, Goering, H. K., and P. J. Van Soest, “Forage Fiber Analyses (Apparatus, Reagents, Procedures, and Some Applications),” Agric. Handbook, No 379, ARS-USDA, Washington, D.C., 1970). Rumen fluid was obtained from a dairy cow, filtered, and added to the serum bottles as 20% of the total fluid addition (30 mL total fluid volume). The serum bottles were sealed, placed in an incubator, and the fermentation was allowed to proceed. Fermentations were performed on two separate days, during which time gas production was monitored every 30 minutes and pH, NH3, and VFA production measured after 24 hours.

| Substance | Gas 24 h [mL/0.3 g] |
| --- | --- |
| polyglycerol 4 [PG4] | 7.6 |
| polyglycerol 8 [PG8] | 7.6 |
